According to PubChem BioAssay:
The entries are a selection whose mix differs from that of the whole data set. The source made the active and inactive calls.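 How the source made its calls, unless noted: active means active in primary screen and both duplicates, each dropping signal beyond three positive-control SD with fluorescence still positive; inactive means the rest.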

Amino acid sequences for entries named in this document (tags omitted). A change or cut given only in a name is not applied to a line headed by its entry.
UniProt Q61143: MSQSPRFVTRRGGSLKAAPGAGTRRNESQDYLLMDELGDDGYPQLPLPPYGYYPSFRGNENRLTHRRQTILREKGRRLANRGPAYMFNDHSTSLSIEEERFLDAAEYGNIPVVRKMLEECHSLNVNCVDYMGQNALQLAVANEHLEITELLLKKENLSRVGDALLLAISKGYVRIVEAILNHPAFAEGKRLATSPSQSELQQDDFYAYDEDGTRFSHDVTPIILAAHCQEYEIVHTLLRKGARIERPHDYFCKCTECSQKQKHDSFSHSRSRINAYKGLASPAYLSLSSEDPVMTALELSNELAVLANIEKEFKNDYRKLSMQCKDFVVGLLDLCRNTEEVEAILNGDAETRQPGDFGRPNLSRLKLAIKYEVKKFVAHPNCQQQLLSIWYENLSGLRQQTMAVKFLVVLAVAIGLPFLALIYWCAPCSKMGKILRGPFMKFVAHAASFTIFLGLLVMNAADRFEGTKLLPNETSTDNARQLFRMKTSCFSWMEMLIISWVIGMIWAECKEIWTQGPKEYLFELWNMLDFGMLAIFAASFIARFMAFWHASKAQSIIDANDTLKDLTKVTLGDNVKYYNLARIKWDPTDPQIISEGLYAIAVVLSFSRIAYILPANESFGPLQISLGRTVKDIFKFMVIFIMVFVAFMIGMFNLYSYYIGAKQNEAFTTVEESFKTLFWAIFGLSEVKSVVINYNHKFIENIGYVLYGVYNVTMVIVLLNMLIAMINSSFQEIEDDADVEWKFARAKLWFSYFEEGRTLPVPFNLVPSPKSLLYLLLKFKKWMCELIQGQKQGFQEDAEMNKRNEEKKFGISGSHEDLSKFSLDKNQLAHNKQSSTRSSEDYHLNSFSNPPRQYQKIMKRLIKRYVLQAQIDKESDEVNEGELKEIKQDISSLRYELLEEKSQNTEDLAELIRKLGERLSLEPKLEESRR

Tests used:
[1] = molecular target: Short transient receptor potential channel 6 (Mus musculus) (UniProt Q61143); test: TRPC6 blockade by TRPC4 inhibitor hits – cell-based, HEK293, membrane potential dye, duplicate, selectivity assay for TRPC4 inhibitor project, confirmation (AID 434948); details: HEK293 TRPC6, membrane potential dye fluorescence; at 10 µM; stronger effect = higher value; stimulated with maximal-effect acetylcholine
Outline: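 Times: 45 min RT dye load, 110 s compound, 110 s agonist read | Assay system: HEK293 cells expressing mouse TRPC6 channel | Detection: Kinetic membrane potential dye fluorescence | Replicates: Duplicate testing | Read-out: Control-normalized integrated fluorescence ratio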

[2] = molecular target: Short transient receptor potential channel 6 (Mus musculus) (UniProt Q61143); test: positive modulators of mouse TRPC6 channel – HEK293 cells, membrane potential dye, duplicate, selectivity assay for TRPC4 potentiator project, confirmation (AID 434952;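 active means compound raising the membrane signal above positive-control mean plus 3 SD in both repeats, and a primary screen hit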); details: HEK293 TRPC6, membrane potential dye fluorescence; at 10 µM; stronger effect = higher value; maximal acetylcholine added after compound
[3] = membrane potential response modulators in host HEK293 cells – cell-based, second counter-screen, parental HEK293, membrane potential dye, counter-screen for TRPC6 modulator project, confirmation (AID 488926;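 active means membrane potential signal drops by more than 5 SD from the mean control signal, in both duplicate plates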;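 further: plate controls were acetylcholine ECmax control wells for no effect and buffer only wells for full effect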); details: parental HEK293, membrane potential dye fluorescence; at 10 µM; stronger effect = higher value; after compound, maximal acetylcholine stimulation

| SMILES | inhibition [1] | potentiation, percent of control [2] | inhibition [3] |
| --- | --- | --- | --- |
| CN(C)C1(CNC(=O)c2ccc(Cl)c(S(N)(=O)=O)c2)CCCCC1 | inactive: 0% | inactive: 0% |  |
| O=C(OC1CN2CCC1CC2)C12CC3CC(CC(C3)C1)C2 (stereo not drawn) |  |  | active: 100% |
